Laboratory results from patent publication US11267861B2, “Peptide-oligourea foldamer compounds and methods of their use” (UREKA SARL, priority 2016, dated 2022).

Tests used:
[1] = target: T1, Carboxypeptidase A (EC 3.4.17.1) (Bos taurus, UniProt P00730); test: Enzymatic degradation by carboxypeptidase A; type: in vitro ADME, bovine; details: same results = more stable than the native peptides
T1 construct: from bovine pancreas (Fluka), milky suspension; purchased Fluka; host or cells: bovine pancreas
T1 sequence (P00730 111-419): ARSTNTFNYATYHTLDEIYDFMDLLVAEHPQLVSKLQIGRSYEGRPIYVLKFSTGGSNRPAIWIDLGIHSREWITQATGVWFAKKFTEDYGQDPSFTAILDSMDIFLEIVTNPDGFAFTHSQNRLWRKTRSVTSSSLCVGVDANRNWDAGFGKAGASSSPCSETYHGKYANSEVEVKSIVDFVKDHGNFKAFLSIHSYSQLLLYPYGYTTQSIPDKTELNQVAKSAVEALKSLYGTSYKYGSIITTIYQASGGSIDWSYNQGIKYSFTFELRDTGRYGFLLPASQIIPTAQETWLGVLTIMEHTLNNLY
Procedure: Enzymatic Degradation—Carboxypeptidase A. Carboxypeptidase A (EC 3.4.17.1) from bovine pancreas (Fluka), milky suspension, stock solution in PBS buffer (pH 7.5, 0.01 M). For each degradation experiment, stock solutions of the peptidic substrate and the enzyme were made using phosphate-buffered saline (PBS) buffer solution. The enzyme concentrations of the stock solutions were selected such that the standard substrates were totally degraded after a maximum of 15 min (ratio 2[enzyme]:100[substrate]). PBS buffer solution (10 mM sodium phosphate, 0.14 M NaCl) was prepared as follows: Solution A (4.75 mL of 0.2 M NaH2PO4.H2O), solution B (20.25 mL of 0.2 M Na2HPO4.H2O), NaCl (4.5 g) and H2O (25 mL) were stirred for 15 min at room temperature and diluted tenfold with H2O. The pH was adjusted either with NaOH (1 M) or with HCl (1 M) prior to use. A solution of the substrate in PBS buffer (pH 7.5, 0.01 M) and a solution of the required amount of enzyme, were mixed and incubated at 25° C. for 4 hours. Degradation was stopped with concentrated AcOH, and buffer solution was added so that the total volume reached 150 μL.
The resulting mixture was analyzed by reversed-phase HPLC. A mixture of CH3CN/H2O (0.1% TFA) was used as eluent. Gradients were 10% CH3CN to 100% CH3CN in 10 minutes. The flow rate, for all separations, was 1 mL·min^−1.

[2] = target: T2, mouse GLP-1 receptor (Mus musculus, UniProt O35659); test: GLP-1 functional assay: agonist activity by cAMP production (HTRF) in βTC6 cells; type: cell-based
T2 construct: mouse GLP-1 receptor endogenously expressed in βTC6 cells; endogenous in cells; host or cells: βTC6 cells
T2 sequence (O35659 22-463): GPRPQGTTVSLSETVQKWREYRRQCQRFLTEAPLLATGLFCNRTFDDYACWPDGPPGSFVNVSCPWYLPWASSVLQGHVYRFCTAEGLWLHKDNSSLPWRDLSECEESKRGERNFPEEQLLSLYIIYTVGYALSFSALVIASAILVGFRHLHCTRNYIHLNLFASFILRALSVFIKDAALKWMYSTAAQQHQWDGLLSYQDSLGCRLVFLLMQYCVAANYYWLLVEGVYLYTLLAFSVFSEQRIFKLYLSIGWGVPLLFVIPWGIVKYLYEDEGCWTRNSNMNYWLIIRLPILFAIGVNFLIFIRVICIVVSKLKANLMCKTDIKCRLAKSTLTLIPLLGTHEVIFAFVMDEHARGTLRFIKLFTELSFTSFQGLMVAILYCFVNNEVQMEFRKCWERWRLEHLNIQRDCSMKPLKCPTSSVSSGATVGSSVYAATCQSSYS
Procedure: For stimulated control measurement, separate assay wells contain 10 nM GLP-1(7-37) were utilized.
Following incubation, the cells were lysed and the fluorescence acceptor (D2-labeled cAMP) and fluorescence donor (anti-cAMP antibody labeled with europium cryptate) were added. […] The results are expressed as a percent of the control response to 10 nM GLP-1(7-37). The standard reference agonist is GLP-1(7-37), which was tested in each experiment at several concentrations to generate a concentration-response curve from which its EC50 value was calculated.
HTRF (Homogeneous Time-Resolved Fluorescence) principle. The HTRF technology is based on time resolved fluorescence energy transfer (TR-FRET), which occurs between long-lived fluorophore Europium or Terbium Cryptates, and EuK or Tb respectively, as a donor and the allophycocyanin XL665, d2 or Red as acceptor. Many compounds and proteins present in biological fluids or serum are naturally fluorescent, and the use of conventional, prompt fluorescence leads to serious limitations in assay sensitivity. The use of long-lived fluorophore combined with time-resolved detection (a delay between excitation and emission detection) minimizes prompt fluorescence interference.

[3] = tested on: chymotrypsin; test: Enzymatic degradation by chymotrypsin; type: in vitro ADME; details: compared to native peptide GLP-1 (SEQ ID NO: 1)
Procedure: Enzymatic Degradation—Chymotrypsin and Trypsin. Stock solutions of the compounds were prepared at a concentration of 400 μM in a solution of 50 mM HEPES buffer, 50 mM NaCl, 0.05% Tween-80, pH 8.0. Stock solution of the chymotrypsin or trypsin was prepared at a concentration of 250 μg/mL in water. Stability of compounds to chymotrypsin was assessed by conducting a protease reaction in a 96-well plates at room temperature. Each well received 10 μL of HEPES buffer, 38 μL of the solution of compound to be assayed (final concentration 304 μmol/L), and 2 μL of the enzyme solution (final concentration 10 μg/mL) for a total volume of 50 μL. Each compound was also incubated in the absence of the enzyme (12 μL of HEPES buffer and 38 μL of the compound).
At the indicated time (5, 10, 15, 30 and 60 minute(s)) a 10 μL aliquot was removed from each experimental reaction and pipet into 100 μL of 1% TFA solution to quench the reaction (t=0 minutes was determined using the reaction without enzyme). A portion of the quenched reaction solution was analyzed by HPLC. The time course of peptide degradation was determined by integrating the area of each peak in a series of HPLC traces. Another portion of the quenched reaction was analyzed by LC-MS for identification of each peptide fragment.

SMILES | stability with carboxipeptidase A compared to native peptides [1] | EC50 [2] [nM] | half-life in the chymotrypsin degradation test compared to native peptide [3]
CC[C@H](C)[C@H](NC(=O)[C@H](Cc1ccccc1)NC(=O)[C@H](CCC(=O)O)NC(=O)[C@H](CCCCN)NC(=O)[C@H](C)NC(=O)[C@H](C)NC(=O)[C@H](CCC(N)=O)NC(=O)CNC(=O)[C@H](CCC(=O)O)NC(=O)[C@H](CC(C)C)NC(=O)[C@H](Cc1ccc(O)cc1)NC(=O)[C@H](CO)NC(=O)[C@H](CO)NC(=O)[C@@H](NC(=O)[C@H](CC(=O)O)NC(=O)[C@H](CO)NC(=O)[C@@H](NC(=O)[C@H](Cc1ccccc1)NC(=O)[C@@H](NC(=O)CNC(=O)[C@H](CCC(=O)O)NC(=O)[C@H](C)NC(=O)[C@@H](N)Cc1c[nH]cn1)[C@@H](C)O)[C@@H](C)O)C(C)C)C(=O)N[C@@H](C)C(=O)N[C@@H](Cc1c[nH]c2ccccc12)C(=O)N[C@H](CNC(=O)N[C@H](C(=O)N[C@@H](CCCCN)C(=O)NCC(=O)N[C@@H](CCCNC(=N)N)C(=O)NCC(=O)O)C(C)C)CC(C)C [Compound 6] | same results | 0.21 | longer half-life
CC[C@H](C)[C@H](NC(=O)[C@H](Cc1ccccc1)NC(=O)[C@H](CCC(=O)O)NC(=O)[C@H](CCCCN)NC(=O)[C@H](C)NC(=O)[C@H](C)NC(=O)[C@H](CCC(N)=O)NC(=O)CNC(=O)[C@H](CCC(=O)O)NC(=O)[C@H](CC(C)C)NC(=O)[C@H](Cc1ccc(O)cc1)NC(=O)[C@H](CO)NC(=O)[C@H](CO)NC(=O)[C@@H](NC(=O)[C@H](CC(=O)O)NC(=O)[C@H](CO)NC(=O)[C@@H](NC(=O)[C@H](Cc1ccccc1)NC(=O)[C@@H](NC(=O)CNC(=O)[C@H](CCC(=O)O)NC(=O)[C@H](C)NC(=O)[C@@H](N)Cc1c[nH]cn1)[C@@H](C)O)[C@@H](C)O)C(C)C)C(=O)N[C@@H](C)C(=O)N[C@@H](Cc1c[nH]c2ccccc12)C(=O)N[C@@H](C)CNC(=O)N[C@H](C(=O)N[C@@H](CCCCN)C(=O)NCC(=O)N[C@@H](CCCNC(=N)N)C(=O)NCC(=O)O)C(C)C [Compound 5] | same results | 0.42 | longer half-life
CC[C@H](C)[C@H](NC(=O)[C@H](Cc1ccccc1)NC(=O)[C@H](CCC(=O)O)NC(=O)[C@H](CCCCN)NC(=O)[C@H](C)NC(=O)[C@H](C)NC(=O)[C@H](CCC(N)=O)NC(=O)CNC(=O)[C@H](CCC(=O)O)NC(=O)[C@H](CC(C)C)NC(=O)[C@H](Cc1ccc(O)cc1)NC(=O)[C@H](CO)NC(=O)[C@H](CO)NC(=O)[C@@H](NC(=O)[C@H](CC(=O)O)NC(=O)[C@H](CO)NC(=O)[C@@H](NC(=O)[C@H](Cc1ccccc1)NC(=O)[C@@H](NC(=O)CNC(=O)[C@H](CCC(=O)O)NC(=O)[C@H](C)NC(=O)[C@@H](N)Cc1c[nH]cn1)[C@@H](C)O)[C@@H](C)O)C(C)C)C(=O)N[C@@H](C)C(=O)N[C@@H](Cc1c[nH]c2ccccc12)C(=O)N[C@@H](CC(C)C)C(=O)N[C@@H](C)CNC(=O)N[C@@H](CCCCN)C(=O)NCC(=O)N[C@@H](CCCNC(=N)N)C(=O)NCC(=O)O [Compound 7] | same results | 0.22 | longer half-life
CC[C@H](C)[C@H](NC(=O)[C@H](Cc1ccccc1)NC(=O)[C@H](CCC(=O)O)NC(=O)[C@H](CCCCN)NC(=O)[C@H](C)NC(=O)[C@H](C)NC(=O)[C@H](CCC(N)=O)NC(=O)CNC(=O)[C@H](CCC(=O)O)NC(=O)[C@H](CC(C)C)NC(=O)[C@H](Cc1ccc(O)cc1)NC(=O)[C@H](CO)NC(=O)[C@H](CO)NC(=O)[C@@H](NC(=O)[C@H](CC(=O)O)NC(=O)[C@H](CO)NC(=O)[C@@H](NC(=O)[C@H](Cc1ccccc1)NC(=O)[C@@H](NC(=O)CNC(=O)[C@H](CCC(=O)O)NC(=O)[C@H](C)NC(=O)[C@@H](N)Cc1c[nH]cn1)[C@@H](C)O)[C@@H](C)O)C(C)C)C(=O)N[C@@H](C)C(=O)N[C@@H](C)CNC(=O)N[C@@H](CC(C)C)C(=O)N[C@H](C(=O)N[C@@H](CCCCN)C(=O)NCC(=O)N[C@@H](CCCNC(=N)N)C(=O)NCC(=O)O)C(C)C [Compound 3] | same results | 0.46 | longer half-life
CC[C@H](C)[C@H](NC(=O)[C@H](Cc1ccccc1)NC(=O)[C@H](CCC(=O)O)NC(=O)[C@H](CCCCN)NC(=O)[C@H](C)NC(=O)[C@H](C)NC(=O)[C@H](CCC(N)=O)NC(=O)CNC(=O)[C@H](CCC(=O)O)NC(=O)[C@H](CC(C)C)NC(=O)[C@H](Cc1ccc(O)cc1)NC(=O)[C@H](CO)NC(=O)[C@H](CO)NC(=O)[C@@H](NC(=O)[C@H](CC(=O)O)NC(=O)[C@H](CO)NC(=O)[C@@H](NC(=O)[C@H](Cc1ccccc1)NC(=O)[C@@H](NC(=O)CNC(=O)[C@H](CCC(=O)O)NC(=O)[C@H](C)NC(=O)[C@@H](N)Cc1c[nH]cn1)[C@@H](C)O)[C@@H](C)O)C(C)C)C(=O)N[C@@H](C)C(=O)N[C@@H](Cc1c[nH]c2ccccc12)C(=O)N[C@@H](CC(C)C)C(=O)N[C@H](CNC(=O)N[C@@H](CCCCN)C(=O)NCC(=O)N[C@@H](CCCNC(=N)N)C(=O)NCC(=O)O)C(C)C [Compound 8] | – | 0.2 | longer half-life
